# Literature values as cited in US5686426A, “Dicarboxymethylated glycolipid derivatives as cell adhesion inhibitors” (Bristol-Myers Squibb Company, priority 1994, dated 1997).
# Target: T1, P-selectin (Homo sapiens, UniProt P16109)
# T1 sequence (P16109 42-830): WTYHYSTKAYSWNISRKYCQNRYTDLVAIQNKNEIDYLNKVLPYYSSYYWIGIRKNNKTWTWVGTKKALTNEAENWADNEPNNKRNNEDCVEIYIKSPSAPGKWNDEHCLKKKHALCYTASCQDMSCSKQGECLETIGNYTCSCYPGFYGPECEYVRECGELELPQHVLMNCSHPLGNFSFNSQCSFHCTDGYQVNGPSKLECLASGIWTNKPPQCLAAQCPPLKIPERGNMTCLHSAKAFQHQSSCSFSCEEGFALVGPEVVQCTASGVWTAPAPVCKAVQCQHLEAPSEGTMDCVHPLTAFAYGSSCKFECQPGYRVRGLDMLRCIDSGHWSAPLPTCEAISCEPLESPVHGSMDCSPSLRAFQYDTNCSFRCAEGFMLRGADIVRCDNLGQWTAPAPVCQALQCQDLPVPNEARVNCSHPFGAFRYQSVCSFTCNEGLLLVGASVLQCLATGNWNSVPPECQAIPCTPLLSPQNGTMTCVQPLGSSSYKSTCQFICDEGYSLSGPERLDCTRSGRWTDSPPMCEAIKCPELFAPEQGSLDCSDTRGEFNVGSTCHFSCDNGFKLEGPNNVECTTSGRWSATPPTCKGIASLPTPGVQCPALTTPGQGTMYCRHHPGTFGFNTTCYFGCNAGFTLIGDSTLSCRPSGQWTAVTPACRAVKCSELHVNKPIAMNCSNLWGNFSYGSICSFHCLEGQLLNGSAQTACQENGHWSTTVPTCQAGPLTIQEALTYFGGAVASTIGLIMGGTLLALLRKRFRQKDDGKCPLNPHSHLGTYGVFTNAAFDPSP
# Settings: literature; cited from earlier work
substance,measurement,value
sialyl-Lewis^x,binding to P-selectin (in words),shown to bind
